Yeast mating assay B: variants of the scFv Ab-14

Values reported by Li et al. 2023, doi:10.1038/s41467-023-39022-2 (FLAb copy).

All variants were tested on one target, the spike HR2 peptide PDVDLGDISGINAS (SARS-CoV-2).

Parent scFv Ab-14: VH joined to VL by a (GGGGS)3 linker. Changes lie in the heavy chain CDRs alone.
VH: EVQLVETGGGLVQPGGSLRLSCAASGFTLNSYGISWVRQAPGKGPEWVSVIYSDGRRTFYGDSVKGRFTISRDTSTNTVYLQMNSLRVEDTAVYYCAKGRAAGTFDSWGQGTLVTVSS
VL: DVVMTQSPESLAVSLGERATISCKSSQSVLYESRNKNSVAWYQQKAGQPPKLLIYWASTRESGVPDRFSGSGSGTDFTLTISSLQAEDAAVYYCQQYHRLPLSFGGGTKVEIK

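The starting antibody came from a phage panning campaign against this peptide. The variants were designed computationally from a first round of random CDR variants and then made and measured. Their group label is 14H_GP_Gibbs (GP: Gaussian process model; Gibbs: Gibbs sampling; a sequence that several methods proposed may carry one label only). In AlphaSeq, yeast of one mating type display the scFv and yeast of the other type display the target. The frequency of each diploid, read from paired DNA barcodes, reflects how well the two displayed proteins bind. The ratio of observed to expected reads was calibrated, replicate by replicate, on BCL2-family standards whose Kd was known from biolayer interferometry. The assay was run in six technical replicates.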

Each variant is given by its three heavy chain CDRs, as the data file delimits them; those of the parent are GFTLNSYGIS, VIYSDGRRTFYGDSVK, GRAAGTFDS.
Numbers give log10(Kd / nM), so 0 is 1 nM and 3 is 1 µM. Smaller is tighter.
A pair that was not seen in that replicate is written "nd"; this usually means weak binding, but a binder can also be missed.

The variant GFTLNSYGIS | VIYSDGRRTFYADNVK | GKAAGTFDV gave 2.04, 1.49, 0.66, 0.76, 0.89, 1.18 (controls 0 of 18).
The variant GFSLNEYGIS | VIYSDGRRTFYGDHVK | GRTAGTFDA gave 0.68, 0.78, 1.26, 0.66, 1.58, 1.30 (controls 0 of 18).
The variant GFELNSYGIS | VIYSDGRRTFYSDQVK | GQAAGTFDS gave 1.11, 1.08, 1.21, 0.97, 0.77, 0.84 (controls 0 of 18).
The variant HFELNSYGIS | VIYSDGRRTFYIDSVK | GRQAGTFDS gave nd, nd, 1.58, nd, nd, 1.56 (controls 0 of 18).
The variant GFELNSYGIS | VIYADGRRTFYQDSVK | GKAAGTFDS gave -0.24, -0.43, -0.02, -0.80, -0.39, 0.09 (controls 0 of 18).
The variant GFDLNSYGIS | VIYSDGRRTFYVDSVK | GRVAGTFDI gave 0.30, 1.22, 0.28, 0.50, 0.42, 0.07 (controls 0 of 18).
The variant GFDLNSYGIS | VIYSDGRRTFYIDSVK | GKIAGTFDS gave 1.03, 1.09, nd, 0.41, 0.26, 0.64 (controls 0 of 18).
The variant KFSLNSYGIS | VIYSDGRRTFYGDSVK | GSTAGTFDS gave 1.98, 1.47, 1.00, 1.15, nd, nd (controls 0 of 18).
The variant GFDLNSYGIS | VIYSDGRRTVYGDMVK | GREAGTFDS gave -0.05, 0.85, -0.03, -0.39, -0.02, -0.07 (controls 0 of 18).
The variant SFELNSYGIS | VIYSDGRRTFYGDSVK | GQTAGTFDD gave nd, nd, nd, nd, nd, nd (controls 0 of 18).
The variant GFELNSYGIS | VIYSDGRRTFYGDSVK | GRQAGTFDD gave 0.92, nd, 1.14, 1.13, 0.81, 0.87 (controls 0 of 18).
The variant GFSLNSYGIS | VIYSDGRRTFYGDSVK | GMTAGTFDQ gave 0.26, 0.81, -0.10, 0.15, 0.63, 1.22 (controls 1 of 18).
The variant GFPLNEYGIS | VIYSDGRRTYYGDSVK | GRAAGTFDS gave nd, nd, nd, nd, nd, nd (controls 0 of 18).
The variant GFTLNSYGIS | VIYSDGRRTFYADNVK | GQEAGTFDS gave 0.71, 0.42, -0.20, 0.27, 0.32, 0.41 (controls 1 of 18).
The variant GFELNSYGIS | VIYSDGRRTFYVDSVK | GKTAGTFDT gave nd, nd, nd, nd, 0.47, nd (controls 0 of 18).
The variant GFELNSYGIS | VIYSDGRRTFYQDSVK | GKEAGTFDS gave 0.61, 0.16, 0.27, -0.01, 0.31, 0.43 (controls 0 of 18).
The variant GFSLNSYGIS | VIYSDGWRTFYVDSVK | GRNAGTFDS gave nd, nd, nd, 1.53, nd, 1.82 (controls 1 of 18).
The variant GFSLNTYGIS | VIYSDGRRTFYGDSVK | GRIAGTFDS gave 0.52, 0.71, 0.65, 0.43, 0.53, 0.64 (controls 0 of 18).
The variant GFQLNSYGIS | VIYSDGRRTAYGDQVK | GQAAGTFDS gave 0.89, 1.13, 0.81, 1.94, 0.39, 0.59 (controls 0 of 18).
The variant GFELNSYGIS | VIYSDGRRTFYIDEVK | GRTAGTFDS gave nd, -0.07, nd, nd, 0.76, 0.84 (controls 0 of 18).
The variant GFSLNSYGIS | VIYSDGRRTFYGDDVK | GEAAGTFDN gave 1.15, 0.36, 0.35, 0.33, 0.54, 0.73 (controls 0 of 18).
The variant GFSLNEYGIS | VIYSDGRRTFYADHVK | GRAAGTFDS gave 1.03, 0.91, 0.50, 0.85, 0.43, 0.50 (controls 2 of 18).
The variant GFTLDSYGIS | VIYSDGRRTFYADRVK | GRAAGTFDK gave nd, 1.55, 2.32, 3.39, 3.32, 1.45 (controls 0 of 18).
The variant GFELNMYGIS | VIYSDGRRTFYDDSVK | GKAAGTFDS gave 0.38, 0.09, 0.25, -0.33, -0.24, 1.23 (controls 0 of 18).
The variant GFELNEYGIS | VIYSDGRRTFYHDWVK | GRTAGTFDS gave nd, 2.97, 1.39, nd, 2.64, 1.64 (controls 0 of 18).
The variant KFSLNDYGIS | VIYSDGRRTFYSDSVK | GRTAGTFDS gave -0.39, -0.27, -0.41, -0.45, -0.53, -0.14 (controls 0 of 18).
The variant PFELNSYGIS | VIYADGRRTFYGDSVK | GKAAGTFDV gave 1.24, 2.06, nd, 1.22, 1.95, 1.22 (controls 0 of 18).
The variant GFNLNSYGIS | VIYSDGRRTFYGDSVK | GSAAGTFDL gave 0.94, 0.68, 0.75, 1.00, 0.89, 1.30 (controls 0 of 18).
The variant GFNLNSYGIS | VIYSDGRRTFYGDSVK | GVKAGTFDS gave 1.07, 1.43, 1.33, 0.65, 1.68, 0.70 (controls 0 of 18).
The variant GKSLNSYGIS | VIYSDGRRTFYTDSVK | GQTAGTFDS gave nd, nd, nd, nd, nd, nd (controls 1 of 18).
The variant GFDLNSYGIS | VIYSDGRRTFYGDPVK | GKTAGTFDA gave 0.49, 0.31, 0.16, 0.00, 0.33, 0.04 (controls 0 of 18).
The variant GFTLNSYGIS | VIYSDGRRTFYGDSVK | GNTAGTFDV gave 0.42, -0.16, 0.37, -0.05, 0.09, 0.45 (controls 0 of 18).
The variant GFSLNSYGIS | VIYSDGRRTFYVDDVK | GRLAGTFDS gave nd, nd, nd, nd, nd, 1.21 (controls 0 of 18).
The variant GFELNSYGIS | VIYSDGRRTFYVDSVK | GKIAGTFDS gave 1.65, 2.57, 1.49, 2.10, 2.64, 1.04 (controls 0 of 18).
The variant GFTLNSYGIS | VIYSDGRRTFYIDSVK | GHAAGTFDF gave nd, nd, nd, nd, nd, nd (controls 0 of 18).
The variant GFDLNDYGIS | VIYSDGRRTFYGDQVK | GRTAGTFDS gave 0.03, 0.44, -0.16, 0.42, 0.05, 0.78 (controls 0 of 18).
The variant KFDLNSYGIS | VIYSDGRRTFYLDSVK | GQTAGTFDS gave 2.15, 0.92, nd, 2.06, 1.53, 1.72 (controls 1 of 18).
The variant KFSLNSYGIS | VIYSDGRRTFYQDSVK | GREAGTFDS gave nd, 2.41, 2.16, 1.79, 1.40, 1.76 (controls 0 of 18).
The variant GFSLNSYGIS | VIYSDGRRTFYGDSVK | GETAGTFDL gave 0.27, nd, -0.43, -0.24, 0.30, -0.98 (controls 0 of 18).
The variant GFELNSYGIS | VIYSDGRRTFYQDSVK | GRTAGTFDQ gave 0.21, 0.27, 0.08, -0.15, 0.20, 0.22 (controls 0 of 18).
The variant GFTLNSYGIS | VIYSDGRRTFYSDRVK | GQAAGTFDT gave 1.46, 1.91, 1.14, 1.05, 3.93, 4.20 (controls 0 of 18).
The variant GFSLNSYGIS | VIYSDGRRTAYGDMVK | GRAAGTFDS gave 0.53, 0.84, 0.17, 0.08, -0.16, 0.24 (controls 0 of 18).

Repeated from above, the 3 best binders with a signal in all replicates:

CDR-H1	CDR-H2	CDR-H3	log10 Kd (nM) by replicate	empty controls
KFSLNDYGIS	VIYSDGRRTFYSDSVK	GRTAGTFDS	-0.39, -0.27, -0.41, -0.45, -0.53, -0.14	0 of 18
GFELNSYGIS	VIYADGRRTFYQDSVK	GKAAGTFDS	-0.24, -0.43, -0.02, -0.80, -0.39, 0.09	0 of 18
GFDLNSYGIS	VIYSDGRRTVYGDMVK	GREAGTFDS	-0.05, 0.85, -0.03, -0.39, -0.02, -0.07	0 of 18

In the paper, a design with two or fewer of six values counts as a poor binder.
Nonspecific signal, from three strains lacking the peptide, appeared in 1% of pairings of all heavy chain designs, centred on 2.08 (5% of these signals below 0.84); values are not corrected for it. For each scFv, signals with the empty controls are counted beside the result.
A sequence measured in both rounds can read differently, since the two assays cover different ranges.
Of ten entries with the parent sequence, four were seen in most replicates (averages 0.34 to 2.37), three in one and three in none, so single entries are noisy.